## Binding of CDR-mutated scFvs to a peptide of the spike HR2 region

Target: peptide PDVDLGDISGINAS, taken from heptad repeat 2 (HR2) of SARS-CoV-2 spike.

Parent scFv Ab-14: VH joined to VL by three GGGGS repeats. Changes lie in the heavy chain CDRs alone.
VH: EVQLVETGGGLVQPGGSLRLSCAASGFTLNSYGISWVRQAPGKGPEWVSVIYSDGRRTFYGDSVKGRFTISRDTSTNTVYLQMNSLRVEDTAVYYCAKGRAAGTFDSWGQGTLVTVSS
VL: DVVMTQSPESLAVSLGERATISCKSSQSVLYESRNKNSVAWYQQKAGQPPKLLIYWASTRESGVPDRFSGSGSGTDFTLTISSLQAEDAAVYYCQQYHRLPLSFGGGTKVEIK

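The starting antibody came from a phage panning campaign against this peptide. The library (AAYL49) carries one to three amino acid substitutions per variant, with no insertions or deletions. Affinity was read by AlphaSeq, a pooled yeast mating assay with surface-displayed partners. Mating (16 h, 30 °C) was followed by selection of diploids and sequencing of their barcodes. Each replicate has its own calibration line, from reference interactions of the BCL2 family. Each pool was mated in three replicate cultures.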

Each variant is given by its three heavy chain CDRs, as the data file delimits them; those of the parent are GFTLNSYGIS, VIYSDGRRTFYGDSVK, GRAAGTFDS. Kd is apparent (estimated from mating counts) and averaged on the log scale over replicates with a signal. Smaller is tighter. "nd" marks a missing value. The strain was present, yet no cells mated with the target were sequenced in any replicate, which points to weak or no binding. As a blank, each scFv also met three strains without target: over library AAYL49, 15% of these pairings were detected, typically at 11 µM and seldom below 680 nM.

Kd (apparent),detected,CDR-H1,CDR-H2,CDR-H3
nd,0 of 3,GFTQNSYCIS,VDYSDGRRTFYGDSVK,GRAAGTFDS
nd,0 of 3,GFTLNSYGIW,VIYSDGRRTFYGDSNK,GRAAGTFIS
nd,0 of 3,GFTLNSYTIS,VMYSDGQRTFYGDSVK,GRAAGTFDS
nd,0 of 3,GFTLNSYGIS,VIMSDGRRTFYGDKGK,GRAAGTFDS
760 nM,1 of 3,GFTLNSYGIL,VIYSDGRRTFTGDSVK,GRAAGTFDS
nd,0 of 3,GFTRNSYWIS,VIYSDGRRTLYGDSVK,GRAAGTFDS
1.4 µM,3 of 3,GFTLNSYGIS,VIYSDGRRHFYGDSVK,GRYAGTFDH
nd,0 of 3,GFRLNSYGIS,VIYSDGRRNFYGDSVK,GRAEGTFDS
13 µM,3 of 3,GFTLNSYGIS,VIYPDWRRTFYGDSVK,GRAAGTFDN
31 µM,2 of 3,GFTLNSAGIS,VIYSLGDRTFYGDSVK,GRAAGTFDS
81 µM,1 of 3,GFTLNSYGIQ,VIYSDGRRPFYGDSVK,GRAAGYFDS
nd,0 of 3,GFTRNSYGIS,VIYSDGRRTFYGDSVM,CRAAGTFDS
6.2 µM,1 of 3,GFTLNIYGIS,VIYYDGRRPFYGDSVK,GRAAGTFDS
nd,0 of 3,GFTLNSYWIS,VIYSDGERTFGGDSVK,GRAAGTFDS
nd,0 of 3,GFTLLSYGIS,VIYSDGRRTFYGHSVK,WRAAGTFDS
nd,0 of 3,GFTLNSYYIS,VIYSDGRDTFYGDSVK,GSAAGTFDS
94 µM,1 of 3,IFTLNSYGIS,VIYSDGRRTFYGDSVK,GRWAMTFDS
nd,0 of 3,GFTLNSYGIS,VIYMDGRRTFYGDAVK,GRAAGRFDS
nd,0 of 3,GFTLNSYGPS,VIYSDGRGTFYGDSVK,GRAAGFFDS
590 nM,3 of 3,GFTLWSYGHS,VIYSDGRRTFYGDSVK,GRAPGTFDS
nd,0 of 3,GMTLNSYGIS,VIYSDGRITFYGDSVY,GRAAGTFDS
nd,0 of 3,GFTLNSYGDS,VIYSDGRRTFYGDSHK,GRAACTFDS
8.6 nM,3 of 3,GFTLNSYGIS,VIYSDGRRTFVGDSVK,GRTAGTFDD
nd,0 of 3,GFTLNSYGCS,EIYSDGRRTFYGDSVK,GRAAGTFAS
nd,0 of 3,GFTLNSYGIS,VIYSDGERTFYGDSVK,GRQAGTFDS
nd,0 of 3,GFTLNSYGIS,VAYSDGRRTFYGKSVK,GTAAGTFDS
7.5 µM,1 of 3,GFTNNSYGIS,VIYMDGRRTFYGDKVK,GRAAGTFDS
4.8 µM,3 of 3,GFTLNSYGIS,VIYSDGMRTFYGDLVK,GRAAMTFDS
1.0 µM,1 of 3,GFTGESYGIS,VIYCDGRRTFYGDSVK,GRAAGTFDS
6.5 µM,2 of 3,GFTLNSYGIS,VIGRDGRRTFYGDSVK,GRATGTFDS
180 nM,3 of 3,GHTLNSYGIS,VIYSDGRRTFYGDSVK,GRAAGHFDS
26 µM,1 of 3,GFTLNSYGIS,DIYSDGRRMFYGDSVK,GRAAGTFDT
95 nM,3 of 3,GFTLFSYGIS,VIYSDGRRTFYGDSVK,GRAAGTFFD
52 µM,1 of 3,GFTLNDYGIS,VIYSDGRQPFYGDSVK,GRAAGTFDS
nd,0 of 3,GFTLNVYGIS,DIYSDGRRTFYGDSVK,GRAAGTFRS
17 µM,1 of 3,GFTLNSYGIS,VTYSDGRRTFYGDSEK,GRAAGTFSS
nd,0 of 3,GFTLNSYGIS,VIYSDGRRIPYGDSVK,GRAAWTFDS
nd,0 of 3,GFTLNSYGIS,DIYSDGLRTFYGDSVK,GRAWGTFDS
43 µM,1 of 3,GFTLNSYGIS,VNYSDGRRTFYGDPVK,GRQAGTFDS
nd,0 of 3,GFTLNSYGIS,VPYSDGRRTFYGDSVL,GTAAGTFDS
23 nM,1 of 3,TFTLNSYGIS,VIYSDGRRTFYGQSVK,GRAAGTFDS
nd,0 of 3,GFTLNSYGIS,VIPSDGIRTFYGDSVK,GRAAGTFDS
nd,0 of 3,GFTLNSYGIS,QIYSDGRRTFYGDSGK,GRAAGTFDS
32 µM,2 of 3,GSTLNSYGIS,VVYSDGRRTFYGDYVK,GRAAGTFDS
nd,0 of 3,GFCLNSKGIS,YIYSDGRRTFYGDSVK,GRAAGTFDS
nd,0 of 3,GFTLNSYGIS,VIKSDGRRTFQGDSVK,GRAAGTFDA
41 nM,3 of 3,GFALNSYGIS,VIYQDGRRTFYIDSVK,GRAAGTFDS
120 µM,2 of 3,GFTSNSYGIS,VIYWDGRRTFYGDSVK,GRAAGAFDS
nd,0 of 3,GFTLMSYGIS,VIYSDGRRTFYGDSVK,GRAASTFDS
nd,0 of 3,GITLNSQGIS,VIYSDGRRTFYGDCVK,GRAAGTFDS
nd,0 of 3,GFTLISYGIM,VIYSDGRRTFYGDSVK,GRAANTFDS
nd,0 of 3,GFTLNSYGRS,VIYSDGRRTFYGDSVK,VRAAWTFDS
150 µM,1 of 3,GFTLNSYGIS,VIYSDGRRGFYGWSVK,GRAAGTFDT
1.9 µM,1 of 3,GRNLNSYGIS,VIYSDGRRTFYGDYVK,GRAAGTFDS
nd,0 of 3,GFELNSYGIA,VYYSDGRRTFYGDSVK,GRAAGTFDS
nd,0 of 3,GFTLNSYGIS,VIYSDGRRTFYGDSVK,GRQQVTFDS
110 µM,1 of 3,GFTLNSYKIS,VIYSDGRRTGYGDSVK,GRAAGTHDS
120 µM,2 of 3,GFTLNSYGIS,VIYSDGRRTIYGDSVK,GRAATTYDS
nd,0 of 3,AFTLNSYGIS,VIYSDGRRTFIGDSVK,GRAAGFFDS
11 µM,1 of 3,PFTLNSYEIS,VIYSDGRRFFYGDSVK,GRAAGTFDS

A selection of 7 entries from above:

| CDR-H1 | CDR-H2 | CDR-H3 | Kd (apparent) | detected |
|---|---|---|---|---|
| GFTLNSYGCS | EIYSDGRRTFYGDSVK | GRAAGTFAS | nd | 0 of 3 |
| GFTLNSYGIS | VIYSDGRRTIYGDSVK | GRAATTYDS | 120 µM | 2 of 3 |
| GFTLNSYYIS | VIYSDGRDTFYGDSVK | GSAAGTFDS | nd | 0 of 3 |
| GFTLISYGIM | VIYSDGRRTFYGDSVK | GRAANTFDS | nd | 0 of 3 |
| GFTLFSYGIS | VIYSDGRRTFYGDSVK | GRAAGTFFD | 95 nM | 3 of 3 |
| IFTLNSYGIS | VIYSDGRRTFYGDSVK | GRWAMTFDS | 94 µM | 1 of 3 |
| GFTLNSYGIS | VIKSDGRRTFQGDSVK | GRAAGTFDA | nd | 0 of 3 |

Source: Engelhart et al. 2022 (doi:10.1038/s41597-022-01779-4), MIT Lincoln Laboratory and A-Alpha Bio; data file from the FLAb repository.